According to patent US6846637B1, “Fas peptides and antibodies for modulating apoptosis” (IMED AB, priority 1998, dated 2005):

Assays:
[1] = tested on: antibodies in human sera of healthy blood donors; assay: ELISA reactivity of human serum to Fas peptides; assay type: binding
Excerpt: The derived amino acid sequence (a.a.1-179) of the Fas protein (Itoh et al., 1991) was used for simultaneous multiple solid-phase peptide synthesis (Houghten et al, 1985) of 20 amino acid long peptides (with a 10-residue overlap).
(§1) These peptides were used in ELISA of 30 human sera obtained from healthy blood donors and the specificity of the assay was confirmed by peptide competition ELISA as described (Leonov et al., 1994). Peptides Fp5 (Gly40-Val59), Fp11 (Glu100-Cys119), and Fp17 (Trp160-Val179) were selected as positively reacting with human sera and were used in subsequent experiments.

Jurkat leukemia T cells = conditions: peptide; Fadeel et al., 1995; cited from earlier work
[2] = tested on: immunoglobulin preparations derived from pooled human serum (Gammagard); assay: ELISA reactivity of immunoglobulin preparations (Gammagard) to Fas peptides; assay type: binding; conditions: O.D. 490 nm classes
Method: as §1
Similar experiments were performed with commercially available immunoglobulin preparations derived from pooled human serum enriched by immunosorbence for immunoglobulin fractions (Gammagard-Baxter, Hyland, Glendale, Calif. USA).

## EINCTRTQNTKCRCKPNFFC [Fp11]
[1]; human serum, O.D. 490 nm classes
  Reactivity to Fas peptides in ELISA, Human serum: +++ (+++ > 1.0 O.D.)
[1]; sera of 30 healthy blood donors, in words
  reactivity with human sera: reactive
Jurkat leukemia T cells
  blocking of the apoptotic activity of CH-11: can block
[2]
  Reactivity to Fas peptides in ELISA, Immunoglobulin preparations (Gammagard): +++ (+++ > 1.0 O.D.)
